Data from PubChem BioAssay AID602168 (The Scripps Research Institute Molecular Screening Center, 2012).
Activity calls are given as the source filed them. How the calls were made is not given here.

The chains behind the UniProt entries cited, without tags or fusion partners. Where a name states a change or a piece, a line headed by the entry shows the natural chain unless it says otherwise.
UniProt Q15788: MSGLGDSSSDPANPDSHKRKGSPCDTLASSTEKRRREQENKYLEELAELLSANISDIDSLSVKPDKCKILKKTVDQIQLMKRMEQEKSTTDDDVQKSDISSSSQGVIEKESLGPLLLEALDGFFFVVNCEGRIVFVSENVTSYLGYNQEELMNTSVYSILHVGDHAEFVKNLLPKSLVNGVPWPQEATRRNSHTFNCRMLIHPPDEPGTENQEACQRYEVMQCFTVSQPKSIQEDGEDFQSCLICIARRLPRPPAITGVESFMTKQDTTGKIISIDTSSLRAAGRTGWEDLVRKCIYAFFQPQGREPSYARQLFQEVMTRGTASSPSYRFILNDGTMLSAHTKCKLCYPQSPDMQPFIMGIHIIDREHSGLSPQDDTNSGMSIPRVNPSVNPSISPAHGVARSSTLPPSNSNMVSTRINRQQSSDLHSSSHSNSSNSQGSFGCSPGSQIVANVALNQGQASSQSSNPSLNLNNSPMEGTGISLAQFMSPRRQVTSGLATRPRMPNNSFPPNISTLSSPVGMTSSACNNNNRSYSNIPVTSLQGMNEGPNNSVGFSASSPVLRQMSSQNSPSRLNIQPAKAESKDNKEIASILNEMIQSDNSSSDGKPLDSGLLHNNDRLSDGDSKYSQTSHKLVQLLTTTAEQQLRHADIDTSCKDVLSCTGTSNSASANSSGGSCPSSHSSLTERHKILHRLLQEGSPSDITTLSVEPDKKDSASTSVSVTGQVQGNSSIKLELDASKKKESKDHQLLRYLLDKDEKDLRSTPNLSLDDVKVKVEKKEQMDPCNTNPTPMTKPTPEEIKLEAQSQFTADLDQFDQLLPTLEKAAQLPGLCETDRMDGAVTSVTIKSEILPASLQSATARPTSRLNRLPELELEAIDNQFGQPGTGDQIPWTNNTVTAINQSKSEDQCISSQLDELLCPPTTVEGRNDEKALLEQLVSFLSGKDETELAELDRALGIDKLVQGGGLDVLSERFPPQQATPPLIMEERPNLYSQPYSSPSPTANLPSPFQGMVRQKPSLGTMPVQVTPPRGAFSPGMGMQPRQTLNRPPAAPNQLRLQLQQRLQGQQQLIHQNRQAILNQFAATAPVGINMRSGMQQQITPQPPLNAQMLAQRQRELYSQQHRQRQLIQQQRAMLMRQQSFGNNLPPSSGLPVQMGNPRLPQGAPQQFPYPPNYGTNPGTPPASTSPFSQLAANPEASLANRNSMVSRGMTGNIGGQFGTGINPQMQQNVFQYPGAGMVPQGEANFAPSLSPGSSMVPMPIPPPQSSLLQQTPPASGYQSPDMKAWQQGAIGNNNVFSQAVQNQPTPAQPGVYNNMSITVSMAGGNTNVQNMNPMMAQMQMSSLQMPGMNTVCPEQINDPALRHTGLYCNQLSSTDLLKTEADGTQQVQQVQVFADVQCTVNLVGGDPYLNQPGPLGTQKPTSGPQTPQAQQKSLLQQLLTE

Biological target: Nuclear receptor coactivator 1 (Homo sapiens) (UniProt Q15788)
Test: SRC1 coactivator transcriptional activity inhibitors, dose response, counter-screen for SRC3 inhibitor project, cell-based, luminescence (AID 602168)
Conditions: Cell-based SRC1 luciferase reporter

IC50: inactive: > 12 µM
SMILES: COc1cc([C@@H]2c3cc4c(cc3[C@@H](O[C@@H]3O[C@@H]5CO[C@@H](C)O[C@H]5[C@H](O)[C@H]3O)[C@H]3COC(=O)[C@H]23)OCO4)cc(OC)c1O
